# Binding of CDR-mutated scFvs to a peptide of the spike HR2 region

Target peptide (SARS-CoV-2 spike, HR2 region): PDVDLGDISGINAS

The variants keep the heavy chain, the linker and the frameworks of Ab-14 (scFv order VH, a (GGGGS)3 linker, VL).
VH: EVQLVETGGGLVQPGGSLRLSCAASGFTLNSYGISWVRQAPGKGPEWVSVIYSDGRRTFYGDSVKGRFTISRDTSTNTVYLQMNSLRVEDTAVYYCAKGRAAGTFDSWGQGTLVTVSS
VL: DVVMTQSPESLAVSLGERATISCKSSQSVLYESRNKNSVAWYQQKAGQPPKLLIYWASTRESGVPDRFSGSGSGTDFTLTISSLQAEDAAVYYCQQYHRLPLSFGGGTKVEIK

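The starting antibody came from a phage panning campaign against this peptide. These sequences belong to a second round, designed from the earlier measurements on random variants of the parent. Group labels follow the data file (En: ensemble of fine-tuned language models; GP: Gaussian process model; HC: hill climbing; Gen: genetic algorithm; Gibbs: Gibbs sampling; a sequence that several methods proposed may carry one label only). AlphaSeq pools MATa yeast showing the antibodies with MATalpha yeast showing the peptide. Mating (16 h, 30 °C) was followed by selection of diploids and sequencing of their barcodes. The ratio of observed to expected reads was calibrated, replicate by replicate, on BCL2-family standards whose Kd was known from biolayer interferometry. Each pool was mated in six replicate cultures.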

Each variant is given by its three light chain CDRs, as the data file delimits them; those of the parent are KSSQSVLYESRNKNSVA, WASTRES, QQYHRLPLS. Variants here have more than six changes. Scale: log10 of Kd in nM, estimated from mating counts; low values are strong binders. Where no diploid with the target was found in that replicate, the entry reads "nd": below detection, most likely a poor binder, though not proof of it.

| CDR-L1 | CDR-L2 | CDR-L3 | group | log10 Kd, replicates |
|---|---|---|---|---|
| KLVGVSDSDMNPSHNIA | DVSMVDN | QQYHRLPLD | En_Gibbs | 1.36 2.76 2.26 0.72 nd 2.02 |
| KLSMSMLMESFHKNSVA | ENSTREE | QHYHRLPLS | En_HC | nd nd nd 1.67 nd nd |
| MLSEVLHMLGVQKNAIA | DLVLRAN | QQYHRLPLA | En_Gen | nd nd nd nd nd nd |
| KLSISHQVESINKSNVA | EMVTRES | QQYDRLPLS | En_HC | 2.62 2.51 2.40 2.72 2.20 2.72 |
| TISQLYNMGQFAINSVA | QASIRNA | QQYDRLPLA | En_Gen | nd nd nd nd nd nd |
| MITAMLRGVGRDKNSVA | NAQTREK | QHYHRLPLS | En_HC | nd nd nd nd nd nd |
| KLDQKNRWNGMANYNVA | DSNHRLD | QQYHRLPLI | En_Gibbs | 0.88 0.53 0.57 0.55 0.83 0.95 |
| IVSQMMLWGMHVKNSIA | EAQTRLN | QQYDRLPLF | En_Gen | nd nd nd nd nd nd |
| RLTEHYFMRADQNHAVA | DASTRND | QQYHRLPLW | En_Gibbs | 0.58 0.26 0.13 0.15 0.17 0.48 |
| YLSMYLDMSDDIQYGVA | DANVANA | QQYFRLPLA | En_Gibbs | nd 1.39 1.99 nd 2.02 2.13 |
| KIGHGLTTESRQKNSVA | QTETRVS | QHYHRLPLS | En_HC | 0.74 1.15 1.23 0.98 0.96 1.09 |
| TIGGTLMVGMRNRSNVA | EVSERLN | QQYDRLPLI | En_Gen | 2.56 2.63 1.35 2.51 1.78 1.86 |
| KQSFMVMEGSRNKNSVA | EASLREW | QQYHRLPLS | GP_Gibbs | 1.05 0.67 0.56 0.74 0.95 0.69 |
| KLGESTRFESSNKASIA | DNSTRES | QQYHRLPLS | En_HC | 1.30 1.68 1.23 1.59 1.40 2.08 |
| RLQAHMYDDQYHVNAIA | AGHDRAK | QQYQRLPLS | En_Gibbs | 0.37 1.04 0.36 0.61 1.02 0.51 |
| KISQMVTYESTWWNAIA | QTSTREE | QQYHRLPLS | En_HC | 0.72 0.65 0.58 0.75 0.66 1.18 |
| QLESLEGEGYAYKENIA | EGEQRFS | QQYVRLPLH | En_Gibbs | 1.30 0.78 0.45 0.59 0.48 0.68 |
| TISQSAHMESHNKDNVA | DLNTRGS | QQYDRLPLS | En_HC | 0.25 0.66 -0.19 -0.28 0.27 0.14 |
| KLMFLGDYESRNKNSVA | QASQREQ | QQYHRLPLS | GP_Gibbs | 0.32 0.24 0.14 0.15 0.22 0.29 |
| TLSQSWGMESRNHNNVA | QESTREK | QQYFRLPIS | En_HC | 0.33 0.25 0.15 0.00 0.07 0.16 |
| MISQILNMGSFAINSVA | QASIRCN | QQYDRLPLM | En_Gen | nd nd nd nd nd nd |
| GIQSQMDGTSAVKENIA | NEAERLE | QQYQRLPLT | En_Gibbs | 1.51 1.02 1.76 0.65 1.67 0.75 |
| KMAQGWMYESRMKNSVA | NASVRES | QQYHRLPLS | GP_Gibbs | -0.07 -0.16 -0.26 -0.40 -0.21 -0.17 |
| TLSQMSGLEAVKHNNVA | ENSTREK | QQYDRLPLS | En_Gen | nd 2.09 2.32 2.41 2.35 2.47 |
| MISQILNMGTFAINSVA | QASLRNE | QQYDRLPLM | En_Gen | 1.70 nd 2.59 nd 1.84 2.42 |
| KLSGEMLYESRNKNSVA | HASLRES | QDYHRLPLQ | GP_Gibbs | 0.44 0.10 0.52 0.15 0.32 0.49 |
| KMKQSIEGNPKNWNSIA | DVDSVTE | QQYARLPLF | En_Gibbs | -0.31 -0.19 -0.28 -0.43 0.38 -0.48 |
| TISQSANQESHNKNSVA | DLNVRGS | QQYDRLPLS | En_HC | 0.35 0.60 0.58 0.57 0.45 0.68 |
| KVSEFTRGLMSRQDSIA | DNVTREN | QQYDRLPLS | En_Gen | nd 2.98 nd 2.71 nd 2.54 |
| HITMGMYVMGRHNSSIA | QAEERAK | QQYDRLPLI | En_Gen | 2.17 1.51 1.23 1.74 1.87 2.38 |
| KMTEQLYNGEREPSSIA | AGVIGSD | QQYHQLPLI | En_Gibbs | 0.96 1.43 1.36 1.02 1.44 1.74 |
| KLSQYVGGESRNKSSLA | DNSTRES | QQYERLPLS | En_HC | 2.32 1.57 2.07 2.04 nd 2.10 |
| HITDLMYNNNEGMQNIA | DKAISVM | QQYFRLPLD | En_Gibbs | 1.36 1.21 1.58 1.24 0.85 1.57 |

The authors averaged sequences with at least three values out of six and counted those with two or fewer as poor binders. A sequence measured in both rounds can read differently, since the two assays cover different ranges. Three control strains display no target. For all light chain designs, 4% of the pairings with them gave a signal, with a median of 2.64 and one signal in twenty below 1.59, so weak values seen in few replicates may be background.

Source: Li et al. 2023 (doi:10.1038/s41467-023-39022-2), MIT Lincoln Laboratory and A-Alpha Bio; data file from the FLAb repository.